Experimental data reported in PMC4768790 (The New phytologist, 2015).

Biological target: HopZ3 (Pseudomonas syringae, UniProt Q4ZX47)
Assay: in vitro autoacetylation assay, […] autoradiography
Assay type: biochemical
Details: labelled compound; 50 mM HEPES pH 8.0, 30°C, 1 h

For `CC(=O)SCCNC(=O)CCNC(=O)[C@H](O)C(C)(C)COP(=O)(O)OP(=O)(O)OC[C@H]1O[C@@H](n2cnc3c(N)ncnc32)[C@H](O)[C@@H]1OP(=O)(O)O` [acetyl-CoA], the “in vitro autoacetylation assay, 14C autoradiography” value was “HopZ3 possesses an acetyltransferase activity in vitro”.
